# Measured values from PubChem BioAssay AID1654 (Sanford-Burnham Center for Chemical Genomics, 2009).
# Chains of the proteins cited; added tags and fusions are not shown.
# UniProt P51452, whole entry: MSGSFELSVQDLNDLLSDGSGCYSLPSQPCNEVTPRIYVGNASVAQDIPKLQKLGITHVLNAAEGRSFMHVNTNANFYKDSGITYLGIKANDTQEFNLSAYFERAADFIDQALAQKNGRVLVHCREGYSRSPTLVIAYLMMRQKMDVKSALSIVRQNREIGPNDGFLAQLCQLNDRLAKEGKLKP
# The entries are a selection whose mix differs from that of the whole data set. Calls of active or inactive are those of the source. Rule as the data show it: active = inhibition above about 50%; inactive = the rest.
# Molecular target: Dual specificity protein phosphatase 3 (Homo sapiens) (UniProt P51452)
# Experiment: VHR1 phosphatase inhibitors, primary screen, biochemical, absorbance, uHTS (AID 1654)
# Conditions: recombinant VHR phosphatase, pNPP absorbance; at 13.3 µM; stronger effect = higher value
row,SMILES,inhibition
1,CCC(CO)(C(=O)OC1CN2CCC1CC2)c1ccccc1 (configuration not stated),inactive: -10.1%
2,COc1cc(OC)cc(C(=O)NCC2(N3CCOCC3)CCCCC2)c1,inactive: 13.9%
3,CCCOc1ccc(C)cc1CN(CCCl)CCCl,inactive: -0.9%
4,CN1CCC(Nc2ccc(Cl)cc2)CC1,inactive: -7.9%
5,CCOc1ncccc1C(=O)NCC1(N2CCOCC2)CCCCC1,inactive: 10.5%
6,CN1CCC(Nc2ccc(F)c(Cl)c2)CC1,inactive: 21.9%
7,CCCOc1ccc(C(=O)NCC2(N(C)C)CCCCC2)cc1,inactive: 27.4%
8,CC(C)(C)OC(=O)N1CCC(Nc2ccccc2)CC1,inactive: 5.5%
9,O=C(O)C1(Nc2ccccc2)CCN(Cc2ccccc2)CC1,inactive: 26.3%
10,CCN1CCC(Nc2cccc(F)c2)CC1,inactive: 31.5%
11,CN(C)c1ccc(C(=O)NCC2(N3CCCCC3)CCCCC2)cc1,inactive: 33.3%
12,COc1cc(OC)cc(C(=O)NCC2(N3CCCCC3)CCCCC2)c1,inactive: 13%
13,Fc1ccccc1NC1CCN(Cc2ccccc2)CC1,inactive: -14.1%
14,c1ccc(CN2CCC(Nc3ccccc3)CC2)cc1,inactive: -1.7%
15,CCCN1CCC(Nc2cc(OC)cc(OC)c2)CC1,inactive: 0.7%
16,CN(C)C1(CNC(=O)c2cccc(C#N)c2)CCCCC1,inactive: 6%
17,CC(C)(C)OC(=O)N1CCC(N(C(=O)c2ccccc2)c2ccc(Cl)cc2)CC1,inactive: 13.3%
18,N#Cc1ccc(C(=O)NCC2(N3CCCCC3)CCCCC2)cc1,inactive: 22.6%
19,N/C(=N\O)c1c(N)no[n+]1[O-],inactive: 13.8%
20,CCOC(=O)N1CCC(Nc2ccc(C)cc2)CC1,inactive: 4.9%
21,O=C(OC1CN2CCC1CC2)C1c2ccccc2C=Cc2ccccc21 (configuration not stated),inactive: -1.5%
22,COc1ccc(C(=O)NCC2(N3CCOCC3)CCCCC2)cc1OC,inactive: 24.9%
23,CCCOc1ccc(C(=O)NCC2(N(C)C)CCCCC2)cc1OC,inactive: 27.4%
24,COc1ccc(CN(CCCl)CCCl)cc1Cl,inactive: 15.1%
25,CN(C)c1cccc(C(=O)NCC2(N3CCCCC3)CCCCC2)c1,inactive: 13%
26,CC(C)c1ccc(NC2CCN(C(=O)OC(C)(C)C)CC2)cc1,inactive: 24.4%

row,SMILES,inhibition
1,COc1cc(OC)c(C(=O)NCC2(N(C)C)CCCCC2)cc1OC,inactive: -2%
2,O=C(NCC1(N2CCCCC2)CCCCC1)c1cccc(C(F)(F)F)c1,inactive: -2.7%
3,COc1ccc(NC2CCN(C(=O)OC(C)(C)C)CC2)cc1,inactive: 20.6%
4,CN1CCN(CCOC(=O)C(O)(c2ccccc2)c2ccccc2)CC1,inactive: 1.7%
5,O=C(NCC1(N2CCOCC2)CCCCC1)c1cc(=O)[nH]c2ccccc12,inactive: -8.1%
6,COc1cc(C(=O)NCC2(N3CCCCC3)CCCCC2)ccc1OC(F)F,inactive: 6.7%
7,O=C(NCC1(N2CCCCC2)CCCCC1)c1ccc(OC(F)F)cc1,inactive: 23.1%
8,O=C(NCC1(N2CCCCC2)CCCCC1)c1cccc([N+](=O)[O-])c1,inactive: 18.8%
9,CCN1CCC(Nc2ccc(Cl)cc2)CC1,inactive: 0.3%
10,N#CC1(Nc2ccccc2)CCN(CCc2ccccc2)CC1,inactive: 16.5%
11,COc1cc(C(=O)NCC2(N(C)C)CCCCC2)ccc1OC(F)F,inactive: 27.4%
12,CCOC(=O)N1CCC(Nc2cccc(C)c2)CC1,inactive: 4.4%
13,Cc1ccc(OCC(C)C)c(CN(CCCl)CCCl)c1,inactive: 16.6%
14,CCOc1ccc(C)cc1CN(CCCl)CCCl,inactive: 9.6%
15,O=C(NCC1(N2CCCCC2)CCCCC1)c1ccc(F)cc1,active: 52%
16,CCOC(=O)N1CCC(Nc2ccc(F)cc2)CC1,inactive: -8.4%
17,COc1ccc(NC2CCN(CCc3ccccc3)CC2)c(OC)c1,inactive: 37.6%
18,O=C(NCC1(N2CCOCC2)CCCCC1)c1cc2ccccc2o1,inactive: 11.9%
19,Cc1cc(C)cc(N(C(=O)c2ccccc2)C2CCN(C(=O)OC(C)(C)C)CC2)c1,inactive: 13.8%
20,CCOC(=O)N1CCC(Nc2ccc(OC)cc2)CC1,inactive: 18.4%
21,O=C(OC1CN2CCC1CC2)C1c2ccccc2Oc2ccccc21 (configuration not stated),inactive: 15.3%
22,N#CC1(Nc2ccccc2)CCN(Cc2ccccc2)CC1,inactive: 8.7%
23,O=C(NCC1(N2CCCCC2)CCCCC1)c1ccc(=O)[nH]c1,inactive: 1.8%
24,COc1ccc(C(=O)NCC2(N3CCCCC3)CCCCC2)cc1,inactive: 35.8%
25,COc1ccc(C(=O)NCC2(N3CCCCC3)CCCCC2)c(OC)c1OC,inactive: 5.1%
26,CSc1ccccc1C(=O)NCC1(N2CCCCC2)CCCCC1,inactive: 45.6%
